The test system of this series is ICR-JCL mouse. Conditions: 80 mg/kg body weight.

Take `O=C(O)CCCc1ccc(N(CCCl)CCCl)cc1` [chlorambucil]: the death result is given as “died just after the administration”.

The values above are taken from US4938897A, “Chlorambucil derivatives and cell-discriminating agent containing the same” (Kureha Kagaku Kogyo Kabushiki Kaisha, priority 1985, dated 1990).
